Test results as given in US7030139B2, “Compounds” (AstraZeneca AB, priority 2001, dated 2006).

Amino acid sequences for entries named in this document (tags omitted).
UniProt P34972, whole entry, looked up: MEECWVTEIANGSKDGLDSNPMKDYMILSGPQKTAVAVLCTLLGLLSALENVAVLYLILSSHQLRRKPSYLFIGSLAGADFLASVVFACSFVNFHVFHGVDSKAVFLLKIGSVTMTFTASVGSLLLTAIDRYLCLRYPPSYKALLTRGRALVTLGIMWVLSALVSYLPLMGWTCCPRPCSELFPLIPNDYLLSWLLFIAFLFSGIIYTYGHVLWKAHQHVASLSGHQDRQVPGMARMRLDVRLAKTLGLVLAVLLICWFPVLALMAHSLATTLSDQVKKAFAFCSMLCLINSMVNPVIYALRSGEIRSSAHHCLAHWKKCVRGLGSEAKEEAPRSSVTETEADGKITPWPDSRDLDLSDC

Experiments:
[1] = molecular target: T1, hCB2 (Homo sapiens, UniProt P34972); assay: hCB2 receptor binding (3H-CP55,940 displacement, membranes); conditions: read-out: hCB2 IC50, Table 2, human CB2 membranes
[2] = molecular target: T1, hCB2; assay: hCB2 GTPγS binding; type: biochemical; conditions: for EC50: read-out: hCB2 EC50, Table 2, human CB2 membranes

CCOc1ccc(C(C)c2nc3cc(N(C)C(=O)CC(C)C)ccc3n2CC2CC2)cc1 (centres unmarked) [Example 52, N-[1-(Cyclopropylmethyl)-2-[1-(4-ethoxyphenyl)ethyl]-1H-benzimidazol-5-yl]-N,3-dimethyl-butanamide]
IC50 [1]: 22 nM
EC50 [2]: 7.8 nM

2-[(4-Ethoxyphenyl)methyl]-N,N-diethyl-1-[[(2R)-1-methyl-2-piperidinyl methyl]-1H-benzimidazole-5-carboxamide
IC50 [1]: 18 nM
Emax (%) ([2]; Table 2, maximal stimulated binding defined with 1 μM Win 55,212-2): 106%
EC50 [2]: 1.7 nM
